Source: patent publication US20220072015A1, “Methods of Inhibiting Pathological Angiogenesis” (Unity Biotechnology, Inc., priority 2017, published 2022)

Biological target: Bcl isoforms
Test: Binding affinity for the Bcl isoforms
Conditions: result in words

binding affinities (Ki) for the Bcl isoforms	Compound
nanomole to picomole range	CCn1c(C)c(C(=O)NS(C)(=O)=O)c(-c2cccc(N3CCN(c4ccc(NS(=O)(=O)c5ccc(N[C@H](CCN(C)C)CSc6ccccc6)c([N+](=O)[O-])c5)cc4)CC3)c2)c1-c1ccc(Cl)cc1
nanomole to picomole range	Cc1c(S(C)(=O)=O)c(-c2cc(F)cc(N3CCN(c4ccc(NS(=O)(=O)c5ccc(N[C@H](CCN6CCC(C(=O)OCCCP(=O)(O)O)CC6)CSc6ccccc6)c(S(=O)(=O)C(F)(F)F)c5)cc4)CC3)c2)c(-c2ccc(Cl)cc2)n1C(C)C
